From patent US10184933B2, “Compositions, systems and methods for gene expression noise drug screening and uses thereof” (priority 2013, dated 2019) come the findings set out here.

For assay [1], the system named is latent HIV-1 in JLat 8.6 cells. The class given is cell-based.
Assay [2] concerns latent HIV-1 in primary T-cells. The class given is cell-based. The procedure: FIG. 18A schematically depicts a primary T-cell model of HIV-1 latency 48 h after reactivation with PMA or a subset of noise enhancers (% reactivation percentage is calculated relative to maximal reactivation potential). […] The horizontal line represents the mean calculated Bliss Independence Score (C. I. Bliss, Ann. Appl. Biol. 26:585-615 (1939)), a measure for strict additivity for all of the compounds. FIG. 18B schematically depicts stochastic simulations of noise suppression, which reduces noise without altering the mean expression level but limits reactivation induced by an activator. […] Details are described, e.g., in Example 10.

`CS(=O)(=O)OCCCCOS(C)(=O)=O` [V69, busulfan]: in assay [1], the “synergy in reactivation of HIV-1 latency” value was “synergized”.

Take `S=c1nc[nH]c2nc[nH]c12` [V9, mercaptopurine]: the “synergy with PMA” value in assay [2] was “does not synergize significantly”.
